TDP1 inh – blocks human tyrosyl-DNA phosphodiesterase 1; recombinant TDP1, AlphaScreen DNA substrate cleavage; AID 485290; Q9NUW8; 350,000 tested, 0.28% active; Potency, µM (highest dose often 130 µM), without a hit: at the top dose activity change, negative = inhibition, actives largely listed as inhibitors; note: potency is the fitted concentration of half-maximal effect; % is set by controls: 0 for no effect and ±100 for the full control effect; nearly all actives have a fitted effect of over 40% in size
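Recombinant human Tdp1 (E. coli-expressed, 1 nM final) preincubated with compounds 15 min at room temperature, then 5'-biotin/3'-phosphotyrosine-FITC DNA substrate (15 nM final) added for 5 min. AlphaScreen beads (10 ug/ml final) added 10 min; cleavage lowers signal.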
DT40 TDP1 CPT – DT40-hTDP1 cell growth loss with CPT. chicken DT40 Tdp1-/-;hTDP1 cells + 20 nM CPT, ATP luminescence, 48 h. Potency, µM (top dose mostly 46.2 µM), for the others: at the highest dose activity change, negative = growth inhibition, most hits filed as inhibitors. 420,000 tested, 12% active. AID 686979; note: potency is the fitted concentration of half-maximal effect; % is set by controls: 0 for no effect and ±100 for the full control effect; nearly all actives have a fitted effect of over 55% in size
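Cell growth measured by CellTiter-Glo luminescence after a minimum 48 h, 37 C compound exposure with 20 nM CPT in Tdp1-knockout DT40 cells stably expressing hTDP1, seeded 400/well; qHTS titration format.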
TDP1 cell noCPT – qHTS for Inhibitors of human tyrosyl-DNA phosphodiesterase 1 (TDP1): qHTS in cells in absence of CPT | DT40 Tdp1-/- hTDP1 cells, no CPT, ATP luminescence, 48 h | Potency, µM (highest dose often 46.2 µM), for the others: at the top dose activity change, negative = growth inhibition, usual class: inhibitors | 420,000 tested, 15% active; note: potency is the fitted concentration of half-maximal effect; % is set by controls: 0 for no effect and ±100 for the full control effect; nearly all actives have a fitted effect of over 55% in size
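DT40 Tdp1-/-;hTDP1 cells, no CPT (DMSO vehicle only), 400 cells/well; compounds pin-transferred; ≥48 hr, 37 °C; CellTiter-Glo 30 min RT dark, luminescence read.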
miR-21 FLuc – miR-21 reporter, rising signal. HeLa miR-21 FLuc reporter, luciferase, 48 h. Potency, µM (titrated, usually from 38.3 µM), without a hit: at the top dose reporter change, positive = more light. 340,000 tested, under 10 active. AID 2288; active = well fitted rising curve with a large enough effect; inconclusive = small, poorly fitted or top-dose-only effect; inactive = no such curve, though single readings can be large or run the other way;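 also: % of control where 0% means no effect; miR-21 action dims this reporter so a rising signal means less miR-21 action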
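Compounds were titrated across several concentrations (up to approximately 40 uM) and incubated 48 hours with HeLa miR-21-FLuc reporter cells (miR-21 target sequence downstream of FLuc, endogenous miR-21). Readout was firefly luciferase luminescence after lytic detection reagent.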
uPA surface inh – blocks generation of uPA at the cell surface; Potency, µM (doses to about 38.3 µM), without a hit: top-dose activity change, negative = inhibition, hits mostly inhibitors; AID 540303; cell surface uPA generation assay, qHTS; 330,000 tested, 0.31% active; active = well fitted inhibition curve with a large enough effect; inconclusive = small, poorly fitted or top-dose-only effect; inactive = no such curve, though single readings can be large or run the other way; tested in mouse RAW 264.7 cells; note: potency is the fitted concentration of half-maximal effect; % is set by controls: 0 for no effect and ±100 for the full control effect; nearly all actives have a fitted effect of over 55% in size
Numbers without * were called inactive; ? = inconclusive; . = no result. Rows were chosen to be rich in hits. Some 16% of all compounds tested hit in one or more screens of this group. Unless noted, calls come from the whole dose curve; as a rule, active = well fitted curve in the direction sought with a large enough effect; inconclusive = small, poorly fitted or top-dose-only effect, or another doubt; inactive = no such curve, though single readings can be large; an effect the other way counts as inactive or inconclusive.

Each structure is followed by: TDP1 cell noCPT | DT40 TDP1 CPT | miR-21 FLuc | TDP1 inh | uPA surface inh
- O=C(O)CC/C(=N/NC(=O)c1cn(-c2ccccc2)nc1-c1ccccc1)C(=O)O
    ? | ? | 1% | -2% | -18%
- CC(C)C(C(=O)NCc1ccco1)N(C(=O)CNS(=O)(=O)c1ccc(Cl)cc1)C1CCCC1 (stereo not drawn)
    ? | -30% | -1% | 7% | 0%
- Cc1cc2oc(C(=O)N(Cc3ccccc3)C3CCS(=O)(=O)C3)cc(=O)c2cc1Cl (stereo not drawn)
    ? | ? | -10% | 9% | -2%
- CN(C)c1cccc(N(C)C)c1CNC(=O)NC(=O)c1c(F)cccc1F
    ? | ? | 1% | 5% | 6%
- CC(C)Cc1nc2oc3c(NCCCN4CCOCC4)ncnc3c2c2c1CCC2
    ? | 16µM* | -10% | 1% | .
- CC(C)Cc1nc2oc3c(Cl)ncnc3c2c2c1CCC2
    18µM* | 13µM* | -1% | 2% | .
- O=C(CCn1nc(-c2ccc(Cl)cc2)ccc1=O)N1CCOCC1
    2% | -26% | -2% | 4% | 1%
- COc1cccc(S(=O)(=O)Nc2ccc(C(O)(C(F)(F)F)C(F)(F)F)cc2)c1
    16µM* | 16µM* | . | . | .
- CC(C)(C)c1ccc(S(=O)(=O)Nc2ccc(C(O)(C(F)(F)F)C(F)(F)F)cc2)cc1
    16µM* | 16µM* | . | . | .
- O=S(=O)(Nc1ccc(C(O)(C(F)(F)F)C(F)(F)F)cc1)c1cccc2ccccc12
    21µM* | 16µM* | . | . | .
- O=C1N=C(N2CCN(Cc3ccccc3)CC2)S/C1=C/c1cccs1
    12µM* | -17% | -13% | 7% | 6%
- O=C1N=C(N2CCN(c3ccccc3)CC2)S/C1=C/c1cccs1
    ? | -20% | -19% | 3% | 3%
- Cc1ccc(CNC(=O)c2ccc3nc(SCc4ccc(F)cc4)[nH]c3c2)cc1
    13µM* | 15µM* | 23% | -4% | .
- Cn1c(SCc2ccc(F)cc2)nc2ccc(C(=O)NCc3ccc(F)cc3)cc21
    16µM* | 16µM* | 8% | 2% | .
- Cn1c(SCc2ccc(F)cc2)nc2ccc(C(=O)NCc3cccc(Cl)c3)cc21
    ? | 16µM* | ? | -3% | .
- O=C(NCCc1ccccc1)C(=O)NCC1OCCCN1S(=O)(=O)c1cccs1 (stereo not drawn)
    -1% | -8% | -4% | 3% | 9%
- Cc1cc[n+](CC2OCc3ccccc3CO2)cc1
    18µM* | ? | 1% | -6% | -6%
- CC(C)CNCC1OCc2ccccc2CO1
    10% | -2% | -4% | . | 3%
- O=C(NCc1ccccc1)C1c2ccccc2OCC(=O)N1CCc1ccccc1 (stereo not drawn)
    -30% | -2% | . | . | .
- COC(=O)c1sccc1NC(=O)Nc1cccc(F)c1
    -15% | 0% | -4% | 3% | 1%
- CCCC[C@@H]1C=C(C(=O)O)[C@H](c2ccc(CC)cc2)N1S(=O)(=O)c1ccc(C)cc1
    -18% | 0% | . | 1% | ?
- CCOC(=O)C1=C[C@@H](C(C)(C)C)N(S(=O)(=O)c2ccc(C)cc2)[C@H]1c1ccc(Cl)c(Cl)c1
    23µM* | 16µM* | . | . | .
- CC[C@@H]1C=C(C(=O)O)[C@H](c2ccc(Cl)c(Cl)c2)N1S(=O)(=O)c1ccc(C)cc1
    9% | 0% | . | 1% | -3%
- Cc1ccc(S(=O)(=O)N2[C@@H](c3ccc(Cl)c(Cl)c3)C(C(=O)O)=C[C@H]2C(C)(C)C)cc1
    ? | ? | . | 1% | -3%
- CCOC(=O)N1CCN(S(=O)(=O)c2ccc([N+](=O)[O-])cc2)CC1
    2% | -1% | 6% | 4% | 0%
- CCC[C@@H]1C=C(C(=O)OCC)[C@H](c2ccccc2)N1S(=O)(=O)c1ccc(C)cc1
    5.2µM* | 5.2µM* | . | . | .
- CCOC(=O)C1=C[C@@H](C2CCCCC2)N(S(=O)(=O)c2ccc([N+](=O)[O-])cc2)[C@H]1c1ccccc1
    ? | 21µM* | . | . | .
- CCOC(=O)C1=C[C@@H](c2ccccc2)N(S(=O)(=O)c2ccc(C)cc2)[C@H]1c1ccccc1Cl
    26µM* | ? | . | . | .
- CCOC(=O)c1cc(NC(=O)CNCC(c2ccccc2)N(C)C)cc(C(=O)OCC)c1 (stereo not drawn)
    ? | ? | 1% | . | -3%
- CCC1Nc2ncnc(N3CCOCC3)c2N(Cc2ccc(Cl)cc2)C1=O (stereo not drawn)
    -4% | -7% | . | -3% | 0%
- CN1C(C(=O)Nc2ccccn2)=C(O)c2sccc2S1(=O)=O
    ? | ? | -2% | 6% | 11%
- Cc1ccc(Cl)cc1NC(=O)c1oc2ccc(S(=O)(=O)N3CCCCCC3)cc2c1C
    -20% | -27% | -2% | 3% | .
- CCOC(=O)C1=C[C@@H](CC)N(S(=O)(=O)c2ccccc2)[C@H]1c1ccccc1
    18µM* | ? | . | . | .
- CCOC(=O)C1=C[C@@H](C(C)C)N(S(=O)(=O)c2ccc(C)cc2)[C@H]1c1ccc(C(F)(F)F)cc1
    12µM* | ? | . | . | .
- Cc1ccc([C@H]2C(C(=O)O)=C[C@@H](C(C)(C)C)N2S(=O)(=O)c2ccc(C)cc2)cc1
    -11% | 3% | . | 1% | -17%
- CCc1ccc([C@H]2C(C(=O)O)=C[C@@H](CC)N2S(=O)(=O)c2ccc(C)cc2)cc1
    ? | -17% | . | 2% | -25%
- Cc1ccc(-c2nnc(Nc3ccc(O)cc3)c3ccccc23)cc1S(=O)(=O)NCC1CCCO1 (stereo not drawn)
    23µM* | ? | 16% | . | .
- Cc1ccc(-c2nnc(Nc3ccc(Br)cc3)c3ccccc23)cc1S(=O)(=O)NCC1CCCO1 (stereo not drawn)
    4.1µM* | 16µM* | 6% | . | .
- O=C1CC(c2ccccc2)=C(c2ccccc2)C1c1ccccc1 (stereo not drawn)
    ? | 29µM* | . | . | -2%
- O=C1NNC(=O)C1c1ccccc1
    1% | -1% | 1% | . | 0%

Record cards (already shown):
CCCC[C@@H]1C=C(C(=O)O)[C@H](c2ccc(CC)cc2)N1S(=O)(=O)c1ccc(C)cc1 reads TDP1 cell noCPT = -18%; DT40 TDP1 CPT = 0%; miR-21 FLuc = .; TDP1 inh = 1%; uPA surface inh = ?
Cc1ccc(Cl)cc1NC(=O)c1oc2ccc(S(=O)(=O)N3CCCCCC3)cc2c1C reads TDP1 cell noCPT = -20%; DT40 TDP1 CPT = -27%; miR-21 FLuc = -2%; TDP1 inh = 3%; uPA surface inh = .

The main list resumes; the 2 compounds before the break are reprinted first.
Each structure is followed by: TDP1 cell noCPT | DT40 TDP1 CPT | miR-21 FLuc | TDP1 inh | uPA surface inh
- O=C1CC(c2ccccc2)=C(c2ccccc2)C1c1ccccc1 (stereo not drawn)
    ? | 29µM* | . | . | -2%
- O=C1NNC(=O)C1c1ccccc1
    1% | -1% | 1% | . | 0%
- COc1cccc(C=Nc2ccccc2C(=O)Nc2ccccc2)c1O
    0% | 8% | -40% | -1% | -4%
- COc1cccc(/C=N\NC(=O)Cn2nnc3ccccc32)c1O
    2.9µM* | 3.7µM* | 11% | -2% | -14%
- COc1ccc(O)c(/C=N\NC(=O)CCn2nnc3ccccc32)c1
    23µM* | ? | 19% | -4% | -6%
- COc1cc(/C=N/NC(=O)CCn2nnc3ccccc32)ccc1O
    0% | 41% | -9% | -3% | -5%
- COc1cccc(/C=N/NC(=O)CSCC(=O)Nc2ccccc2)c1O
    3.2µM* | 4.5µM* | 10% | 3% | .
